Test results as given in patent EP4821917A1, “PROLIFERATING CELL NUCLEAR ANTIGEN INHIBITOR, AND PREPARATION METHOD THEREFOR, INTERMEDIATE THEREOF, PHARMACEUTICAL COMPOSITION THEREOF AND USE THEREOF” (dated 2026).

Key:
[1] = test system: Human prostate cancer (PC-3); assay: Broad-spectrum antitumor activity assay, PC-3; conditions: Table 5
Protocol: (§1) • a) The cell cryopreservation tube was taken out from liquid nitrogen and placed in a water bath at 37°C for rapid thawing. After the surface of the cryopreservation tube was wiped with 75% ethanol, the cryopreservation tube was transferred into a biosafety cabinet. • b) The cryopreserved cells were transferred into a 15-mL sterile centrifuge tube. Culture medium in a volume 10 times that of the cryopreservation solution was added, and centrifuged at 1,200 rpm for 5 min. • c) The culture medium in the centrifuge tube was discarded. An appropriate volume of fresh culture medium (Table 2) was added. The cells were re-suspended, transferred into a culture flask and cultured in a cell culture incubator at 37°C. The culture medium was replaced the next day.
(§2) • a) For adherent cells at the logarithmic growth phase, the culture medium was discarded. The cells were washed with 8 mL of PBS two times, and the PBS was discarded. • b) 5 mL of a dissociation solution containing 0.25% trypsin was added, and the cells were incubated at 37°C for 3 to 5 min. […]
(§3) • a) Preparation of cell suspension • i. the culture medium was removed from the culture flask; • ii. the cells were rinsed with PBS two times; • iii. trypsin was added to dissociate the cells, and after the dissociation was terminated by adding culture medium, the cells were collected by centrifugation; the suspension cells were collected directly; • iv. the cells were re-suspended in culture medium, counted and adjusted to an appropriate concentration. • b) The cell suspension was added to a 384-well plate at a volume of 40 µL per well. […]
(§4) • a) The cell culture plate was removed and allowed to equilibrate at room temperature for 30 min. • b) The working solution for the CTG assay was prepared according to the instructions of the Promega kit and equilibrated to 25°C in an incubator. • c) 30 µL of CellTiter-Glo was transferred to each well of the cell culture plate. After incubation at room temperature for 15 min, the chemiluminescence was read using Ensight. […]

[2] = test system: HL-60; assay: Antitumor activity assay (CellTiter-Glo), HL-60; conditions: for IC50: HL-60; for higher inhibitory activity against HL-60 as compared to Comparative Compound 2 (AOH-1996): fold relative to AOH-1996; for antitumor activity (HL-60) relative to the corresponding compounds 44 and 93: comparison in words
Protocol: (§5) Table 2 Cell Culture Conditions
as §1
(§6) • a) For adherent cells at the logarithmic growth phase, the culture medium was discarded. The cells were washed with 8 mL of PBS two times, and the PBS was discarded. • b) 5 mL of a dissociation solution containing 0.25% trypsin was added, and the cells were incubated at 37°C for 3 to 5 min. […] The cells were gently pipetted to detach them from the culture surface, thereby obtaining a cell suspension for subsequent passaging and experimentation.
(§7) • a) The cells were harvested directly and collected by centrifugation.
(§8) • a) Preparation of cell suspension • i. the culture medium was removed from the culture flask; • ii. the cells were rinsed with PBS two times; • iii. trypsin was added to dissociate the cells, and after the dissociation was terminated by adding culture medium, the cells were collected by centrifugation; the suspension cells were collected directly; • iv. the cells were re-suspended in culture medium, counted and adjusted to an appropriate concentration. • b) The cell suspension was added to a 384-well plate at a volume of 40 µL per well. The number of cells per well was shown in Table 2. • c) The cells were incubated at 37°C in a 5% CO2 incubator for 48 h.
(§9) • a) Preparation of gradient dilution solutions of positive compounds and test compounds: A 10 mM stock solution of each compound was prepared using DMSO. Subsequently, a 3-fold serial gradient dilution was carried out with DMSO to generate a total of 10 concentration points for each compound.
(§10) • a) 40 nL of compound was transferred using an Echo550 system. The cell suspension was added to the cell culture plate at a volume of 40 µL per well. • b) The cells were transferred to an incubator and incubated for 48 h.
(§11) • a) The cell culture plate was removed and allowed to equilibrate at room temperature for 30 min. • b) The working solution for the CTG assay was prepared according to the instructions of the Promega kit and equilibrated to 25°C in an incubator. • c) 30 µL of CellTiter-Glo was transferred to each well of the cell culture plate. After incubation at room temperature for 15 min, the chemiluminescence was read using Ensight.
(§12) The inhibition ratio (% inhibition) was calculated using the following formula: %Inhibition = 100%−100% × (LumSample −LumLC)/(LumHC −LumLC) [formula] • LumHC: reading of cells in the control group treated with 1‰ DMSO • LumSample: reading of cells treated with compound • LumLC: reading of cells in blank culture medium
(§13) The IC50 was calculated using XLfit (5.3.1.3) by fitting the data to formula 201: y = (A+((B-A)/(1+((x/C)^D)))) • A: Bottom • B: Top • C: IC50 (Rel IC50) • D: Hill Slope Table 3 Inhibitory Activity of Compounds Against HL-60

[3] = test system: Human ovarian cancer (OVCAR-3); assay: Broad-spectrum antitumor activity assay, OVCAR-3; conditions: Table 5
Protocol: as §1, §6, §7, §8, §9, §10, §11, §12
(§14) The IC50 was calculated using XLfit (5.3.1.3) by fitting the data to formula 201: y = (A+((B-A)/(1+((x/C)^D)))) • A: Bottom • B: Top • C: IC50 (Rel IC50) • D: Hill Slope Table 3 Inhibitory Activity of Compounds Against HL-60 […]

[4] = test system: colon cancer (HCT-116); assay: Broad-spectrum antitumor activity assay, HCT-116; conditions: Table 5
Protocol: as §1, with “The cells were re-suspended, transferred into a culture flask and cultured in a cell culture incubator at 37°C. The culture medium was replaced the next day.” left out
as §3, §14

[5] = test system: Human breast cancer (MCF7); assay: Broad-spectrum antitumor activity assay, MCF7; conditions: Table 5
Protocol: as §1, §6, §7, §8, §9, §10, §11, §12, §14

[6] = test system: Human peripheral blood mononuclear cell (Human PBMC); assay: Cytotoxicity toward normal cells, Human PBMC; conditions: for IC50: Table 5, normal Human PBMC, highest test concentration 10 µM; for cytotoxicity toward normal human peripheral blood mononuclear cells (PBMCs): at the highest test concentration of 10 µM
Protocol: as §1, §6, §7, §8, §9, §10, §11, §12, §13
(§15) According to the test methods described above, the antitumor activities of the test compounds and AOH-1996 in various tumor cell lines were tested (Table 5).

[7] = test system: Non-small cell lung cancer (A-549); assay: Broad-spectrum antitumor activity assay, A-549; conditions: Table 5
Protocol: as §1, §2, §3, §4

[8] = test system: Human renal cancer (786-O); assay: Broad-spectrum antitumor activity assay, 786-O; conditions: Table 5
Protocol: as §1, §6, §7, §8
• a) Preparation of gradient dilution solutions of positive compounds and test compounds: A 10 mM stock solution of each compound was prepared using DMSO. […]
as §4, §14

[9] = test system: Human glioma (U-251); assay: Broad-spectrum antitumor activity assay, U-251; conditions: Table 5
Protocol: as §1, with “The cells were re-suspended, transferred into a culture flask and cultured in a cell culture incubator at 37°C. The culture medium was replaced the next day.” left out
as §3, §14

[10] = Pharmacokinetic study, single gavage to mice; conditions: for Cmax and half-life as compared to compound AOH-1996: comparison in words; for biological stability: conclusion from the pharmacokinetic results (Table 6), relative to AOH-1996; for AUC 0-last / Cmax / T1/2: CB-17 SCID (B-Ces1c KO) mice, plasma, dose not given
Protocol: Pharmacokinetic studies on administration of comparative compound 2 (AOH-1996), compound 100 (MTB-2006) and compound 99 via single gavage to female CB-17 SCID (B-Ces1c KO) mice
Prior to the first administration, animals were grouped based on body weight. The animals were weighed before administration, and the dosing volume was calculated based on the body weight.
After each formulation was prepared, two aliquots of the clear dosing solution (top and bottom layers) or three aliquots of the suspension (top, middle, and bottom layers) were collected. The formulation was analyzed by HPLC-UV to evaluate the accuracy of the formulation concentration.
Plasma samples were collected at 0.167, 0.333, 0.5, 1, 2, 4, 6, and 12 h after administration.
Whole blood collection and preparation of plasma samples: Whole blood was collected from the saphenous vein of each animal (approximately 0.02 mL per time point) into pre-cooled commercial blood collection tubes (containing EDTA-K2 as an anticoagulant) at each time point. Within 10 seconds after collection of the whole blood, a stabilizer was added at a ratio of whole blood to 400 mM DDV (19:1, v:v). The samples were placed on wet ice till centrifugation. Blood samples collected at each time were kept on wet ice prior to centrifugation, and centrifuged at approximately 4°C and 3,200 g for 10 min to prepare plasma samples. Subsequently, the plasma samples were transferred to low-adsorption tubes, flash-frozen on dry ice, and stored at a temperature of -60°C or lower till LC-MS/MS. The sample processing was carried out under wet ice conditions.
The concentration of the formulation for administration was determined by the HPLC-UV method. The calibration curve consisted of at least six concentration levels. Each sample was analyzed in duplicate. The measured concentration should fall within 80% to 120% of the theoretical formulation concentration; otherwise, the pharmacokinetic parameters should be calculated based on the actual dose.
Under non-GLP conditions, an LC-MS/MS method for the quantitative determination of the test compounds in biological matrices was established. Table 6. Pharmacokinetic Data of AOH-1996, Compound 99, and MTB-2006

[11] = test system: NCI-H522; assay: Antitumor activity assay (CellTiter-Glo), NCI-H522; conditions: for IC50: Table 4, NCI-H522, Max. Concentration 10 µM, 48 h, CTG; for antitumor activity (NCI-H522) relative to AOH-1996: comparison in words
Protocol: as §5, §1, §6, §7, §8, §9, §10, §11, §12, §13

[12] = test system: all test tumor cell lines; assay: Broad-spectrum antitumor activity assay, summary over all cell lines; conditions: comparison in words
Protocol: as §15

[13] = Table 3, Max. Concentration 10 µM, 48 h, CTG

Row | Compound | IC50 [2, 13] [nM] | IC50 ([2]; Table 5 (broad-spectrum assay)) [nM] | higher inhibitory activity against HL-60 as compared to Comparative Compound 2 (AOH-1996) [2] | IC50 [3] [nM] | IC50 [5] [nM] | IC50 [6] [µM] | cytotoxicity toward normal human peripheral blood mononuclear cells (PBMCs) [6] | IC50 [8] [nM] | further results
1 | Cc1cc2c(cc1Oc1ccccc1NC(=O)CNC(=O)c1cccc3ccccc13)CCO2 | 67.3 | 62.6 | approximately nine times higher | 154 | 91.4 | > 10 | no significant cytotoxicity | 63.4 | IC50 [1]: 79.6 nM; IC50 [4]: 25.8 nM; IC50 [7]: 113 nM; IC50 [9]: 66.5 nM
2 | Cc1cc2c(cc1Oc1cc(F)ccc1NC(=O)CNC(=O)c1cccc3ccccc13)CCO2 | 64 | 81 |  | 88.2 | 79.3 | > 10 | no significant cytotoxicity | 79.1 | antitumor activity (HL-60) relative to the corresponding compounds 44 and 93 [2]: comparable; Cmax and half-life as compared to compound AOH-1996 [10]: significantly improved; biological stability [10]: better biological stability; AUC 0-last ([10]; single gavage): 345 ng·h/mL; Cmax ([10]; single gavage): 68.6 ng/mL; T1/2 ([10]; single gavage): 3.21 h
3 | COc1cccc(Oc2ccccc2NC(=O)CNC(=O)c2cccc3ccccc23)c1 | 632 | 385 |  | 536 | 469 | > 10 |  |  | IC50 [1]: 351 nM; AUC 0-last ([10]; single gavage): 162 ng·h/mL; Cmax ([10]; single gavage): 54.3 ng/mL; T1/2 ([10]; single gavage): 2.99 h; IC50 [11]: 234 nM; IC50 [7]: 730 nM
4 | O=C(CNC(=O)c1cccc2ccccc12)Nc1ccccc1Oc1ccc2c(c1)OCO2 | 484 |  |  |  |  |  |  |  | 
5 | O=C(CNC(=O)c1cccc2ccccc12)Nc1ccccc1Oc1ccc2c(c1)CCO2 | 210 |  | three times higher |  |  |  |  |  | higher inhibitory activity against HL-60 as compared to Comparative Compound 2 (AOH-1996) ([2]; listed as MTB-1956): three folds higher; IC50 [11]: 134 nM; antitumor activity (NCI-H522) relative to AOH-1996 [11]: significantly enhanced
6 | O=C(CNC(=O)c1cccc2ccccc12)Nc1ccccc1Oc1ccc2scnc2c1 | 6860 |  |  |  |  |  |  |  | IC50 [11]: 2040 nM; antitumor activity (NCI-H522) relative to AOH-1996 [11]: lower activity
7 | Cn1ccc2ccc(Oc3ccccc3NC(=O)CNC(=O)c3cccc4ccccc34)cc21 | 528 |  |  |  |  |  |  |  | 
8 | Cn1cnc2ccc(Oc3ccccc3NC(=O)CNC(=O)c3cccc4ccccc34)cc21 | 581 |  |  |  |  |  |  |  | 
9 | [2H]C([2H])([2H])c1cc2c(cc1Oc1cc(F)ccc1NC(=O)CNC(=O)c1cccc3ccccc13)CCO2 | 63.1 | 78.6 |  | 86.2 | 81.3 | > 10 | no significant cytotoxicity | 78.2 | antitumor activity (HL-60) relative to the corresponding compounds 44 and 93 [2]: comparable; Cmax and half-life as compared to compound AOH-1996 [10]: significantly improved; biological stability [10]: better biological stability; AUC 0-last ([10]; single gavage): 457 ng·h/mL; Cmax ([10]; single gavage): 98.5 ng/mL; T1/2 ([10]; single gavage): 3.73 h; drug exposure relative to AOH-1996 ([10]; single gavage, mice): approximately three times; increase of drug exposure as compared to compound 99 ([10]; single gavage, mice): 32.5%; antitumor activity relative to compound 93 (MTB-1993) [12]: comparable
10 | Cc1cc2c(cc1Sc1ccccc1NC(=O)CNC(=O)c1cccc3ccccc13)CCO2 | 68 |  | approximately nine times higher |  |  |  |  |  | 
11 | [2H]C([2H])([2H])c1cc2c(cc1Oc1ccccc1NC(=O)CNC(=O)c1cccc3ccccc13)CCO2 | 63 | 64.6 | approximately nine times higher | 80.3 | 72.5 | > 10 | no significant cytotoxicity | 63.1 | IC50 [1]: 67 nM; IC50 [4]: 20.5 nM; IC50 [7]: 71.9 nM; IC50 [9]: 60.8 nM
12 | Cn1ccc2cc(Oc3ccccc3NC(=O)CNC(=O)c3cccc4ccccc34)ccc21 | 593 |  |  |  |  |  |  |  | 
